Tested on: microbiota present in the faecal samples
Experiment: Faecal fermentation, distribution of oligosaccharides (HPAEC-PAD peak areas)
Details: Example 2 sample, 0 h
Source text: HPAEC-PAD (high performance anion exchange chromatography) equipped with a PA-1 column was used for separation of mono- and oligosaccharides of the different samples. […] The samples as used for GPC were 100-fold diluted with DMSO before injection.
The distribution of oligosaccharides in the mixtures was also monitored over this time period using the method described above in relation to Table 2.

Peak areas: 12.3
SMILES: OC[C@H]1O[C@@H](O[C@H]2[C@@H](O)[C@@H](CO)O[C@@H](O[C@H]3[C@@H](O)[C@@H](CO)O[C@@H](O[C@H]4[C@H](O)[C@@H](O)C(O)O[C@@H]4CO)[C@@H]3O)[C@@H]2O)[C@H](O)[C@@H](O)[C@H]1O (stereo partly drawn) [Cpd. ID 31, D-Gal-(β1-3)-D-Gal-(β1-3)-D-Gal-(β1-4)-D-Glu]

Reference: patent US20250197436A1, “GALACTOOLIGOSACCHARIDE COMPOSITION” (priority 2022, published 2025)
